# Screening results from PubChem.
# An excerpt weighted towards active compounds, which were near 2.1% of everything screened.
# miR-21 reporter: raises the signal of a miR-21 reporter | AID 2288 | 340,000 tested, under 10 active | Potency, µM (series often up to 38.3 µM), without a hit: at the highest dose reporter change, positive = more light | HeLa miR-21 FLuc reporter, luciferase, 48 h; active = well fitted rising curve with a large enough effect; inconclusive = small, poorly fitted or top-dose-only effect; inactive = no such curve, though single readings can be large or run the other way;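 further: % of control where 0% means no effect; miR-21 action dims this reporter so a rising signal means less miR-21 action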
#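 HeLa cells endogenously expressing miR-21, stably carrying CMV-driven firefly luciferase with a downstream miR-21 binding site, 2000 cells/well. Titrations up to approximately 40 uM, 48 hours; luciferase luminescence read.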
# Nrf2 ARE act: activates Nrf2 signaling. AREc32 ARE-luciferase reporter (MCF7-derived line), luminescence, 24 h. Potency, µM (titrated, usually from 46.1 µM), without a hit: top-dose activation, most hits filed as activators. 0.31% of 410,000 active. AID 624171; note: potency is the fitted concentration of half-maximal effect; % of control where 0% means no effect; nearly all actives have a fitted effect of over 65% in size
#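 Luciferase luminescence (Steady-Glo, 30 min at room temperature) served as the read-out of ARE activation in AREc32 cells treated with compounds for 24 hr at 37 deg C.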
# PTAP TSG101 blk: blocks PTAP/TSG101 interaction to inhibit HIV-1 budding; 340,000 tested, under 10 active; Potency, µM (titrated, usually from 115 µM), inactives show at the top dose activity change, negative = inhibition, hits mostly inhibitors; Fluorescence polarization, FITC-PTAP peptide / Tsg101 binding; Q99816; active = well fitted inhibition curve with a large enough effect in the main read-out, with a control signal flat, not every such curve was filed as active; inconclusive = small, poorly fitted or top-dose-only effect, or effect the other way, or a change in a side signal; inactive = no such curve, though single readings can be large or run the other way; note: potency is the fitted concentration of half-maximal effect; % of control where 0% means no effect
#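 Steps: Tsg101 binding domain dispensed (10 uM final), compounds pinned in DMSO, FITC-labeled PTAP-motif peptide added (50 nM final); after 20 min binding at room temperature, polarization measured.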
# Glioma ERSR ind: ER stress response induction in glioma. U87-MG GRP78 promoter luciferase reporter, 16 h. Potency, µM, for inactives: at the top dose activation, actives largely listed as activators. 0.02% of 420,000 active; note: potency is the fitted concentration of half-maximal effect; series mostly up to about 76 µM; % of control where 0% means no effect; nearly all actives have a fitted effect of over 35% in size
#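 Stably transfected U87-MG glioma cells carrying a GRP78-based luciferase sensor; 16 h compound incubation. Luminescence end-point read 10 min after Bright-Glo addition at room temperature.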
# Nrf2 block: blocks Nrf2 signaling; AID 504444; A549 ARE-Fluc reporter, luciferase luminescence, 18-24 h; Potency, µM (top dose mostly 46 µM), for the others: top-dose activity change, negative = inhibition, usual class: inhibitors; 2.1% of 360,000 active; note: potency is the fitted concentration of half-maximal effect; % is set by controls: 0 for no effect and ±100 for the full control effect; nearly all actives have a fitted effect of over 60% in size
#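 A549 ARE_Fluc cells, 5000/well, 5% FBS OPTI-MEM; compounds in dose-response, 18-24 h at 37 °C/5% CO2; CellTiter-Fluor viability read (Ex 405/Em 525), then BugLite luciferase luminescence = Nrf2 activity.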
# A549 tox: kills or reduces viability of A549 cells in Nrf2 counter-screen | A549 ARE-Fluc cells, CellTiter-Fluor viability, 18-24 h | Potency, µM (doses to about 46 µM), without a hit: at the highest dose activity change, negative = cytotoxicity, most hits filed as inhibitors | 0.16% of 390,000 active; note: potency is the fitted concentration of half-maximal effect; % is set by controls: 0 for no effect and ±100 for the full control effect
#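 A549 ARE_Fluc cells in 5% FBS OPTI-MEM were exposed to compounds in concentration-response for 18-24 h at 37 deg C. Viability was read by CellTiter-Fluor fluorescence (Ex 405/Em 525) after 30 min, before the luciferase read.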
# Numbers without * were called inactive; ? = inconclusive; . = not tested or not shown. Unless noted, calls come from the whole dose curve; as a rule, active = well fitted curve in the direction sought with a large enough effect; inconclusive = small, poorly fitted or top-dose-only effect, or another doubt; inactive = no such curve, though single readings can be large; an effect the other way counts as inactive or inconclusive.
1: Cc1c(-c2nc(-c3ccncc3)no2)cccc1[N+](=O)[O-]
2: Cc1cccc(-c2nc(-c3ccncc3)no2)c1
3: c1ccc2c(-c3nc(-c4ccncc4)no3)cccc2c1
4: c1ccc(-c2noc(-c3cccc4ccccc34)n2)cc1
5: O=[N+]([O-])c1cc(-c2nc(-c3ccncc3)no2)ccc1Cl
6: C[C@@H]1[C@H](c2ccccc2)OCCS(=O)(=O)N1Cc1ccccc1F
7: COc1cc(=O)n2c(c1C(=O)N(C)Cc1nonc1C)CCN(Cc1cc(C)ccc1C)CC2
8: Cc1oc(-c2ccccc2NC(=O)c2ccccn2)nc1CNC(=O)c1cccc(C#CC(C)(C)O)c1

Compound | 1 | 2 | 3 | 4 | 5 | 6 | 7 | 8
miR-21 reporter | -18% | -46% | -24% | -53% | -6% | . | . | .
Nrf2 ARE act | 11µM* | 13µM* | 25% | 1.6µM* | 0% | . | . | .
PTAP TSG101 blk | 0% | 1% | . | -1% | -2% | . | . | .
Glioma ERSR ind | 0% | -6% | 4% | -3% | 1% | -2% | -2% | 5%
Nrf2 block | 12% | ? | ? | ? | -19% | . | . | .
A549 tox | 13% | 2% | 19% | 11% | -10% | . | . | .

# Complete entries, looked up by structure. Values in the order: miR-21 reporter	Nrf2 ARE act	PTAP TSG101 blk	Glioma ERSR ind	Nrf2 block	A549 tox
# Profile of Cc1cccc(-c2nc(-c3ccncc3)no2)c1 → -46%	13µM*	1%	-6%	?	2%
# Profile of O=[N+]([O-])c1cc(-c2nc(-c3ccncc3)no2)ccc1Cl → -6%	0%	-2%	1%	-19%	-10%

# Part of the list above, limited to Glioma ERSR ind and Nrf2 block.
nr	molecule	Glioma ERSR ind	Nrf2 block
1	Cc1c(-c2nc(-c3ccncc3)no2)cccc1[N+](=O)[O-]	0%	12%
4	c1ccc(-c2noc(-c3cccc4ccccc34)n2)cc1	-3%	?

# The list continues.
9: Brc1cccc(-c2nc(-c3ccncc3)no2)c1
10: Fc1ccccc1-c1nc(-c2ccncc2)no1
11: O=C(O)c1ccc(-c2noc(-c3cccc(C(F)(F)F)c3)n2)cc1
12: FC(F)(F)c1cccc(-c2nc(-c3ccncc3)no2)c1
13: C=CC[C@@H](Cc1ccc(F)cc1)C(=O)OC[C@@H]1CCCN1C(=O)[C@@H](CC=C)CC(=O)N[C@H](CO)Cc1ccccc1
14: C=CC[C@@H](Cc1ccc(F)cc1)C(=O)OC[C@H]1CCCN1C(=O)[C@@H](CC=C)CC(=O)N[C@H](CO)Cc1ccccc1
15: C=CC[C@@H](Cc1ccc(F)cc1)C(=O)OC[C@H]1CCCN1C(=O)[C@H](CC=C)CC(=O)N[C@H](CO)Cc1ccccc1
16: C=CC[C@@H](Cc1ccc(F)cc1)C(=O)OC[C@H]1CCCN1C(=O)[C@@H](CC=C)CC(=O)N[C@@H](CO)Cc1ccccc1

Compound | 9 | 10 | 11 | 12 | 13 | 14 | 15 | 16
miR-21 reporter | -41% | -44% | . | -8% | . | . | . | .
Nrf2 ARE act | 11µM* | 13µM* | 5% | 11µM* | 0% | 1% | 2% | -2%
PTAP TSG101 blk | 0% | 0% | -1% | 0% | -3% | . | . | -3%
Glioma ERSR ind | 1% | -1% | -1% | -3% | -3% | -2% | -2% | -2%
Nrf2 block | . | ? | -25% | ? | ? | 18µM* | 23µM* | ?
A549 tox | 9% | 2% | -8% | 0% | -11% | ? | ? | -22%

17: Cn1nnnc1Sc1ncnc2scc(I)c12
18: Cc1c(CCC(=O)O)c(=O)oc2cc3occ(C(C)(C)C)c3cc12
19: CCN(CC)C(=O)CN(c1cc2c(cc1OC)oc1ccccc12)S(=O)(=O)c1ccccc1
20: O=Cc1sc(Nc2ccccc2)nc1Cl
21: Cc1c(Cn2cnc3c(cnn3C(C)(C)C)c2=O)cccc1C(F)(F)F
22: O=C(CNC(=O)c1ccccc1)N[C@@H](C(=O)Nc1cc(C(F)(F)F)ccc1Cl)c1ccccc1
23: Cc1ccc(CNc2nc(CN3CCNC(=O)C3)nc3ccccc23)o1
24: O=C(/C=C\Nc1cccc(F)c1)c1cccs1

Compound | 17 | 18 | 19 | 20 | 21 | 22 | 23 | 24
miR-21 reporter | . | -31% | 0% | 4% | . | . | . | -44%
Nrf2 ARE act | . | 4% | -1% | 14µM* | . | . | . | 4µM*
PTAP TSG101 blk | . | -1% | -4% | 13% | . | . | . | -5%
Glioma ERSR ind | . | -2% | -2% | 4% | -4% | . | 2% | -4%
Nrf2 block | -23% | 18µM* | 16µM* | 9% | . | ? | . | ?
A549 tox | ? | -1% | ? | 3% | . | -2% | . | -6%

25: Cc1cc(O)c(C(=O)/C=C/c2cccc([N+](=O)[O-])c2)c(=O)o1
26: Cc1cc(O)c(C(=O)/C=C/c2ccccc2O)c(=O)o1
27: O=C(/C=C/Nc1ccc(F)cc1F)c1cccs1
28: O=C(/C=C/c1cccc([N+](=O)[O-])c1)c1cccs1
29: O=C(/C=C/c1cccc([N+](=O)[O-])c1)Nc1ccc(NC(=O)c2cccs2)cc1
30: CCOC(=O)c1ccccc1N/C=C/C(=O)c1cccs1
31: Cc1cc2c(s1)c1cnn(Cc3cc(C(F)(F)F)ccc3F)c(=O)c1n2C
32: CCN(CCN(C)Cl)/[N+]([O-])=N/Oc1ccc([N+](=O)[O-])cc1[N+](=O)[O-]

Compound | 25 | 26 | 27 | 28 | 29 | 30 | 31 | 32
miR-21 reporter | -5% | -8% | 1% | -12% | -8% | -60% | . | .
Nrf2 ARE act | 22µM* | 15% | ? | 16µM* | -1% | 6.3µM* | . | .
PTAP TSG101 blk | -4% | -3% | 2% | -4% | -4% | 0% | . | .
Glioma ERSR ind | -3% | 5% | -12% | ? | -3% | 6% | . | -12%
Nrf2 block | 5% | 1% | ? | ? | -6% | ? | 4% | .
A549 tox | 2% | -10% | -4% | 2% | -3% | -3% | 0% | .

33: COCc1c(C(=O)N2CCN(C(C)C)CC2)cnn1-c1nccc(-c2cc(C)sc2C)n1
34: COc1cc(Cl)c(C)cc1N1C(=O)[C@@H]2C[C@H]1CN2Cc1ccccn1
35: Cc1c(C(=O)N2CCCC2)sc2ncnc(NCCN(C)C)c12
36: O=C(/C=C/c1ccc(O)cc1)c1cccs1
37: O=C(/C=C/c1cccc([N+](=O)[O-])c1)N1CCOCC1
38: O=C(/C=C\c1cccs1)c1c(O)ccc2ccc(=O)oc12
39: O=C(/C=C/c1ccc(-c2cccc([N+](=O)[O-])c2)o1)N1CCOCC1
40: O=C(C=Cc1cccs1)c1cccs1

Compound | 33 | 34 | 35 | 36 | 37 | 38 | 39 | 40
miR-21 reporter | . | . | . | . | -8% | 4% | -64% | .
Nrf2 ARE act | . | . | . | . | 13µM* | 11µM* | 13% | 22µM*
PTAP TSG101 blk | . | . | . | . | -1% | 0% | 0% | 1%
Glioma ERSR ind | -3% | -4% | -9% | 4% | -3% | 4% | 4% | 3%
Nrf2 block | . | . | . | . | 12% | 1% | ? | 1%
A549 tox | . | . | . | . | 2% | -1% | -1% | 0%

41: O=Nc1ccc(/C=C/c2ccnc3ccccc23)cc1
42: Cn1c(CN2CCCCC2)nc2cc(NC(=O)c3ccc(Cl)cc3)ccc21
43: Cn1c(CN2CCCC2)nc2cc(NC(=O)c3ccc(Cl)cc3)ccc21
44: Cc1ccc(NC(=O)c2ccc(CNS(=O)(=O)c3ccc4c(c3)C(C)(C)C(=O)N4C)cc2)cc1C
45: Cc1cccc(NC(=O)c2ccc(CNS(=O)(=O)c3ccc4c(c3)C(C)(C)C(=O)N4C)cc2)c1

Compound | 41 | 42 | 43 | 44 | 45
miR-21 reporter | . | 19% | -4% | ? | ?
Nrf2 ARE act | . | 0% | 4% | 0% | 0%
PTAP TSG101 blk | . | -6% | 1% | . | .
Glioma ERSR ind | -4% | -4% | 2% | -5% | -5%
Nrf2 block | . | 5.8µM* | ? | 18µM* | 21µM*
A549 tox | . | -5% | -10% | -29% | -16%
